Source: PubChem BioAssay (Broad Institute)
FGF22 binding = binders of recombinant human FGF22 by thermal shift; Q9HCT0; SYPRO orange fluorescence; percent of sucrose octasulfate shift, DMSO zero; AID 651658; activity (Tm shift, normalised), % at 9.99 µM; 340,000 compounds, 1.5% hits;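 active means mean Tm shift, scaled 0 neutral to 100 positive control, at about 1.3% or above, every replicate too, limit read from the data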
UUG fidelity = modulators of yeast start codon fidelity, primary screen, whole organism, S. cerevisiae, single point, plate reader; S. cerevisiae UUG-firefly luciferase reporter, luminescence/redox ratio; activity score, % at 18.7 µM; 0.13% of 350,000 active; AID 602363, 2012;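 active = replicate mean at a twofold rise or more, about +100% in these data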;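 also: firefly luciferase made from a UUG start codon reports start codon fidelity; reporter light over untreated wells divided by growth signal over untreated wells; some hits fall short of that in this replicate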
PglD inh = inhibitors of Campylobacter jejuni PglD acetyltransferase | inhibition, % at 12.5 µM | purified PglD enzyme, DTNB colorimetric CoA detection | 360,000 compounds, 0.098% hits; in the data active means inhibition above about 16%, passing the limit was not always enough
ERp5 block = inhibitors of human ERp5; ERp5 insulin aggregation, absorbance 650 nm, 90 min; inhibition, % at 9.99 µM; 350,000 compounds, 0.05% hits; AID 651711;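 active means mean replicate inhibition above about 25%, with every replicate also reaching it, limit read from the data, passing the limit was not always enough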
PDI inh = inhibitors of human protein disulfide isomerase. P07237. PDI insulin aggregation turbidity, A650, 90 min. inhibition, % at 10 µM. 350,000 compounds, 0.052% hits;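 active means mean inhibition across replicates of 30% or more, whatever share of single replicates reach that level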
ARNT TACC3 PPI = ARNT/TACC3 interaction disruption. Q9Y6A5. AlphaScreen His-ARNT PAS-B/GST-TACC3 binding, luminescence; TACC3 fragment carries E629A point mutation. inhibition, % at 9.99 µM. 390,000 compounds, 0.66% hits. AID 623870;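 active means mean inhibition of replicates at least 50% and at least half of replicates each reaching 50%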
A number is an active result; - = inactive; . = no result. An excerpt weighted towards active compounds, which were near 1.9% of everything screened.

SMILES	FGF22 binding	UUG fidelity	PglD inh	ERp5 block	PDI inh	ARNT TACC3 PPI
CN(C)C(=O)C[C@H]1C=C[C@@H](NC(=O)NC2CCCC2)[C@@H](CO)O1	-	-	-	-	.	-
O=C(O)CNC(=O)CC1S/C(=N/N=C2/NC(=O)CS2)NC1=O (stereo not given)	.	.	.	.	-	58
NC(=O)NC(=O)CC1S/C(=N/N=C/c2ccccc2)NC1=O (stereo not given)	-	-	-	-	-	-
NC(=O)NC(=O)CC1S/C(=N/N=C2\CSC(=O)N2)NC1=O (stereo not given)	-	-	-	-	-	53
CC(C)C(=O)Nc1ccc2c(c1)C(=O)N(C)[C@H]1CC[C@H](CC(=O)Nc3ccccc3F)O[C@@H]1CO2	-	-	-	-	.	-
CC(C)NC(=O)Nc1ccc2c(c1)C(=O)N([C@H](C)CO)C[C@@H](C)[C@@H](CN(C)Cc1ccc(Cl)c(Cl)c1)O2	-	-	-	-	.	-
CCCc1sc(N/N=C/c2ccccn2)nc1-c1ccc(F)cc1	.	-	-	.	-	67
Cc1ccc(/C=C/C(=O)Nc2nn[nH]n2)o1	-	.	.	-	-	61
Fc1ccc(NC(=S)Nc2ccc3nccnc3c2)cc1	-	.	.	-	-	64
C[C@@H]1CN([C@H](C)CO)C(=O)c2cc(NC(=O)c3ccncc3)ccc2O[C@@H](C)CCCCO[C@H]1CN(C)C(=O)Nc1ccc2c(c1)OCO2	-	-	-	-	.	-
CCOC(=O)c1c(C)[nH]c(C(=O)CN2C(=O)NC(C)(CC(C)C)C2=O)c1C (stereo not given)	44	.	.	-	-	-
CCOC(=O)c1[nH]c(C)c(C(=O)OCC)c1C	-	-	-	-	-	-
Cn1c2ccccc2c2nnc(SCC(=O)Nc3cccc(C(=O)O)c3)nc21	-	-	-	-	-	47
Cn1c2ccc(F)cc2c2nnc(SCC(=O)Nc3cccc(O)c3)nc21	-	-	-	-	-	-
O=C(CNC(=O)c1ccccc1)OCC(=O)N1N=C(c2ccc(Cl)cc2)CC1c1ccco1 (stereo not given)	43	.	.	-	-	.
O=C(NCCNc1ccc([N+](=O)[O-])cc1C(F)(F)F)c1cccc(F)c1	.	.	.	.	-	.
O=C(NCCNc1ccc([N+](=O)[O-])cc1C(F)(F)F)c1ccccc1	43	.	.	-	-	-
COC(=O)c1c(C)cc(O)cc1O	-	-	-	-	.	-
Cc1cc(OC(=O)c2c(C)cc(OC(=O)c3c(C)cc(O)cc3O)cc2O)cc(O)c1C(=O)O	1.9	-	-	-	.	-
CCOc1ccc(CN(C)CC(=O)Nc2cc(OC)c([N+](=O)[O-])cc2C)cc1	-	-	-	-	-	-
CCOc1ccc(CN(C)CC(=O)Nc2cc(C)c(C)cc2[N+](=O)[O-])cc1	43	-	-	-	-	-
C[C@@H]1CN([C@H](C)CO)C(=O)c2cc(N(C)C)ccc2O[C@@H](C)CCCCO[C@H]1CN(C)Cc1ccccc1	-	-	-	-	.	-
C[C@H]1c2cccc(O)c2C(O)=C2C(=O)C3(O)C(O)=C(C(N)=O)C(=O)[C@@H](N(C)C)[C@@H]3[C@@H](O)[C@@H]21 (stereo not given in full)	-	-	-	-	-	-
C=C1c2cccc(O)c2C(O)=C2C(=O)[C@]3(O)C(O)=C(C(N)=O)C(=O)[C@@H](N(C)C)[C@@H]3[C@@H](O)[C@H]12	-	-	-	-	.	61
CCN(CC)S(=O)(=O)c1ccc(/C=C/C(=O)OCC(=O)Nc2ccc(C(N)=O)cc2)cc1	43	.	.	-	-	-
CCN(CC)S(=O)(=O)c1ccc(/C=C/C(=O)OCC(=O)Nc2ccc(S(N)(=O)=O)cc2)cc1	-	.	.	-	-	-
C[C@@H]1CCCCO[C@@H](CN(C)C(=O)Nc2ccccc2)[C@@H](C)CN([C@@H](C)CO)C(=O)c2cc(NS(=O)(=O)c3ccc(Cl)cc3)ccc2O1	-	-	-	-	.	-
COc1ccc(CNC(=O)C[C@H]2C[C@H]3c4cc(NC(=O)CN(C)C)ccc4O[C@H]3[C@@H](CO)O2)cc1	-	-	-	-	.	-
CCCNC(=O)N(C)C[C@@H]1Oc2cc(-c3ccc(C)cc3)ccc2S(=O)(=O)N([C@@H](C)CO)C[C@@H]1C	-	-	-	-	.	-
